The entries are a selection whose mix differs from that of the whole data set. The source made the active and inactive calls.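 How the source made its calls: active means compounds whose signal lies at least 3.5 SD above the mean of all wells on their plate; inactive means the rest.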
Assay: inducers of MIN6 beta-cell proliferation, primary screen, ATP luminescence, uHTS (AID 2380);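 further: 0% = DMSO-treated cells in low-serum medium and 100% = 10% serum control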
Settings: MIN6 cells proliferation, ATPlite luminescence, 48 h; at 10 µM; active compounds read high; 100% = growth in 10% serum; cells starved in 0.2% serum

| SMILES | proliferation |
| --- | --- |
| C[C@@H]1C=CCP(=O)(Oc2ccccc2)O1 (stereo not given in full) | inactive: -4.3% |
| C[C@H]1OP(=O)(Oc2ccccc2)C[C@@H]2O[C@@H]21 (stereo not given in full) | inactive: -0.88% |
| CC(=O)c1ccc(N2CC2c2ccncc2)cc1 (stereo not given) | inactive: 0.45% |
| CC(=O)Nc1ccc([As](=O)(O)O)c(O)c1 | inactive: -3.03% |
| CC(=O)Nc1ccc(Oc2c([N+](=O)[O-])cc([N+](=O)[O-])cc2[N+](=O)[O-])cc1 | inactive: -3.51% |
| O=C(OC1CN2CCC1CC2)c1ccc(Cl)cc1 (stereo not given) | inactive: 0.92% |
| COc1cc(C(=O)NCC2(N3CCOCC3)CCCCC2)cc(Cl)c1OC(C)C | inactive: -0.76% |
| O=[As](O)(O)c1cccnc1 | inactive: -0.71% |
| CS(=O)(=O)c1ccc(Cl)c(NC(=O)COC(=O)C(O)(c2ccccc2)c2ccccc2)c1 | inactive: -2.69% |
| O=[As](O)(c1cccc(O)c1)c1cccc(O)c1 | inactive: 3.27% |
| Cc1cccc(OCC(=O)OC2CN3CCC2CC3)c1 (stereo not given) | inactive: 1.45% |
| Cc1ccc(NCCc2c([N+](=O)[O-])cc([N+](=O)[O-])cc2[N+](=O)[O-])cc1 | inactive: 0% |
| CCCOP(=S)(Nc1nc(N)cc(=O)[nH]1)OCCC | inactive: 0.2% |
| COc1cc(C2NCCC3(OCCO3)C2(C)C)cc(OC)c1OC (stereo not given) | inactive: 3.29% |
| CCOP(=O)(Nc1cccc2ccccc12)OCC | inactive: -0.63% |
| CCOP1(=S)c2c(C)nn(CCC#N)c2N=C(c2ccccc2F)N1C (stereo not given) | inactive: -1.66% |
| O=P(Nc1nccs1)(c1ccccc1)c1nc2ccccc2s1 (stereo not given) | inactive: -4.47% |
| O=P(Nc1nccs1)(Oc1ccccc1)Oc1ccccc1 | inactive: -1.6% |
| CS(=O)(=O)c1cc([N+](=O)[O-])c2no[n+]([O-])c2c1 | inactive: -4.56% |
| O=C(O)COc1ccc([As](=O)(O)O)cc1[N+](=O)[O-] | inactive: -2.45% |
| Nc1ccccc1[As](=O)(O)c1ccccc1 | inactive: -3.19% |
| NC(=O)Nc1ccc([As](=O)(O)O)cc1 | inactive: -6.08% |
| N#CCCN(C(=O)COC(=O)C(O)(c1ccccc1)c1ccccc1)c1ccc(F)cc1 | inactive: 2.45% |
| CCOP1(=S)c2c(C)nn(CCC#N)c2N=C(c2ccc(F)cc2)N1C (stereo not given) | inactive: -0.86% |
| CN(C(=O)Cc1ccccc1)[C@@H]1CC[C@]2(CCCO2)C[C@H]1N1CCCC1 | inactive: -0.52% |
| CN(C)C(=O)c1cc([N+](=O)[O-])cc2c1-c1c(cc([N+](=O)[O-])cc1[N+](=O)[O-])C2=O | inactive: -4.21% |
| O=[N+]([O-])c1ccc2c(c1)nnn2O | inactive: -0.21% |

| SMILES | proliferation |
| --- | --- |
| CN(C(=O)Cc1ccc(Cl)c(Cl)c1)[C@H]1CC[C@@]2(CCCO2)C[C@@H]1N1CCCC1 | inactive: 4.38% |
| Cc1nn(-c2ccccc2)c2c1P(=O)(N1CCOCC1)N(C)C(c1ccccc1)=N2 (stereo not given) | inactive: 0.04% |
| Cc1ccc(C(=O)OC2CN3CCC2CC3)cc1 (stereo not given) | inactive: -1.15% |
| CC1CCC(C(C)C)C(OP(=O)(Nc2ccccn2)c2ccccc2)C1 (stereo not given) | inactive: 0.18% |
| CN(C)C1(CNC(=O)c2ccc(S(C)(=O)=O)cc2)CCCCC1 | inactive: 1.63% |
| O=C(/C=C/c1ccccc1)OC1CN2CCC1CC2 (stereo not given) | inactive: -2.31% |
| O=P1(Nc2ncccn2)COc2ccccc2OC1 | inactive: -2.27% |
| Nc1cccc([As](=O)(O)c2ccccc2)c1 | inactive: -3.98% |
| NS(=O)(=O)c1cccc(NC(=O)COC(=O)C(O)(c2ccccc2)c2ccccc2)c1 | inactive: 7.06% |
| O=P1(Nc2ccc(Br)cn2)COc2ccccc2OC1 | inactive: -1.21% |
| O=[As](O)(c1cccs1)c1cccs1 | inactive: -4.23% |
| Cc1ccc(OCC(=O)OC2CN3CCC2CC3)cc1 (stereo not given) | inactive: -2.21% |
| CCC1=CC2Cc3nc4ccc(Cl)cc4c(N)c3C(C1)C2 (stereo not given) | inactive: -4.02% |
| O=P1(Nc2ccccn2)COc2ccccc2OC1 | inactive: -3.93% |
| CCOP(=O)(NC(=NC(C)c1ccccc1)NC(C)c1ccccc1)OCC (stereo not given) | inactive: -6.01% |
| CN(CCCl)Cc1cc(Cl)c(NC2=NCCN2)c(Cl)c1 | inactive: -6.8% |
| CCOP(=O)(Nc1ccc(C)cn1)OCC | inactive: -5.72% |
| Clc1n[nH]nc1-c1nn[nH][15n]1 | inactive: -3.22% |
| CC(C)(C)C(=O)NC(Sc1ncccn1)C(Cl)(Cl)Cl (stereo not given) | inactive: -2.36% |
| COc1ccccc1CNC(=O)COC(=O)C(O)(c1ccccc1)c1ccccc1 | inactive: 1.7% |
| CN(C(=O)Cc1ccc(Cl)c(Cl)c1)[C@@H]1CCCC[C@H]1N1CCCC1 | inactive: -4.25% |
| CC(C)/C=N\N=C(\N)N[N+](=O)[O-] | inactive: -2.63% |
| O=[As](O)(c1ccccc1Br)c1ccccc1Br | inactive: 0.9% |
| CC1(CBr)Cn2c(nc3ccccc3c2=O)S1 (stereo not given) | inactive: 0.09% |
| COP1(=S)c2c(C)nn(CCC#N)c2N=C(c2ccc(F)cc2)N1C (stereo not given) | inactive: -1.08% |
| O=C(COc1ccccc1)OC1CN2CCC1CC2 (stereo not given) | inactive: 2.31% |
| O=C(Nc1ccncc1[N+](=O)[O-])c1ccc([N+](=O)[O-])cc1[N+](=O)[O-] | inactive: 1.09% |

| SMILES | proliferation |
| --- | --- |
| O=C(OC1CN2CCC1CC2)c1cccc([N+](=O)[O-])c1 (stereo not given) | inactive: -3.09% |
| CCOC(=O)c1ccc(NC(=O)C(C)(CCl)SC)cc1 (stereo not given) | inactive: -1.48% |
| CCC(C)N(CC(C)C)C(=S)SC(NC(C)=O)C(Cl)(Cl)Cl (stereo not given) | inactive: -5.51% |
| CCOC(=O)Nc1ccc([As](=O)(O)O)c(O)c1 | inactive: 1.08% |
| CCCCOc1ccc(C(=O)NCC2(N3CCCCC3)CCCCC2)cc1OC | inactive: -1.61% |
| Cc1cc(SC(NC(=O)c2ccccc2)C(Cl)(Cl)Cl)nc(C(C)C)n1 (stereo not given) | inactive: -2.22% |
| CCOC(=O)Nc1cccc([As](=O)(O)O)c1 | inactive: 0.98% |
| Cc1cc(SC(NC=O)C(Cl)(Cl)Cl)ncn1 (stereo not given) | inactive: -2.94% |
| O=P(Nc1ccccn1)(c1cccc2ccccc12)c1cccc2ccccc12 | inactive: -1.72% |
| C[As](=O)(O)c1cccc(C(=O)O)c1 | inactive: -1.01% |
| O=[As](O)(c1ccc(O)cc1)c1ccccc1O | inactive: 0.68% |
| COc1cc(C(=O)NCC2(N3CCOCC3)CCCCC2)ccc1OCC(C)C | inactive: -2.95% |
| Cc1ccc(OP(=O)(Nc2ccc([N+](=O)[O-])cn2)Oc2ccc(C)cc2)cc1 | inactive: -2.22% |
| Cc1ccc2nc3c(c(C)c2c1)CC(C(Cl)Cl)S3 (stereo not given) | inactive: -4.42% |
| ClCCSc1nnc(-c2cccnc2)o1 | inactive: -1.12% |
| CC(C)c1ccc(OP(=O)(Nc2ccccn2)Oc2ccccc2F)cc1 (stereo not given) | inactive: 1.84% |
| O=C(OC1CN2CCC1CC2)c1cccc2[nH]cnc12 (stereo not given) | inactive: 0.44% |
| CCN(CC)C(=S)SC(NC=O)C(Cl)(Cl)Cl (stereo not given) | inactive: -4.22% |
| CC(C)NC(=O)NP(=O)(Oc1ccccc1)Oc1ccccc1 | inactive: -1.74% |
| O=[N+]([O-])c1cc([N+](=O)[O-])c(-c2ccn[nH]2)s1 | inactive: -5.68% |
| Cc1c2c(nc3ccccc13)SC(C(Cl)Cl)C2 (stereo not given) | inactive: 2.95% |
| O=C(OC1CN2CCC1CC2)C12CC3CC(CC(C3)C1)C2 (stereo not given) | inactive: 0% |
| Cc1cc(=O)[nH]c(N[N+](=O)[O-])n1 | inactive: 0.08% |
| COc1ccc2nc(NP(=O)(c3ccccc3)c3ccccc3)sc2c1 | inactive: -2.42% |
| COc1cc(I)ccc1[As](=O)(O)O | inactive: -4.37% |
| COc1ccc(N/C(=N/P(=O)(N2CCOCC2)N2CCOCC2)N2CCOCC2)cc1 | inactive: -2.31% |
